# Data as given in PMC7006766, “Coumarins from Magydaris pastinacea as inhibitors of the tumour-associated carbonic anhydrases IX and XII: isolation, biological studies and in silico evaluation” (Journal of Enzyme Inhibition and Medicinal Chemistry, 2020).
# The chains behind the UniProt entries cited, without tags or fusion partners. Residues count along the entry.
# UniProt O43570, 25-354 limits assumed: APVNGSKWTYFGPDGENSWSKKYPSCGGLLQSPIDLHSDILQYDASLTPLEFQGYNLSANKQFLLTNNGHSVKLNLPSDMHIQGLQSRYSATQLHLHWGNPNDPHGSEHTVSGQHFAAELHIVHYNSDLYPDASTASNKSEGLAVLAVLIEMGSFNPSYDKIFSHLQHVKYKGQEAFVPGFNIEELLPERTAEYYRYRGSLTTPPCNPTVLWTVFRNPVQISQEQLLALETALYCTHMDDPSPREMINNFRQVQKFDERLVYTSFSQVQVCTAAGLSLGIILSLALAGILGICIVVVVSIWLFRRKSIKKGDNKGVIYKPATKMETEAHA
# Biological target: hCA XII (Homo sapiens, UniProt O43570)
# Experiment: CA catalysed CO2 hydration stopped-flow inhibition assay, hCA XII
# Settings: read-out: Ki hCA XII, 6 h preincubation, mean of three assays
structure (smiles),measurement,value
"CC1(C)O[C@@H]1COc1c2occc2cc2ccc(=O)oc12 [Compound 8, heraclenin]",Ki,836 nM
